Measurements taken from ChEMBL document CHEMBL5726097, “Combination pharmaceutical compositions and uses thereof” (2019).

Biological target: T1, Phosphatidylinositol 4,5-bisphosphate 3-kinase catalytic subunit delta isoform (Homo sapiens, UniProt O00329)
T1 sequence (O00329 whole entry): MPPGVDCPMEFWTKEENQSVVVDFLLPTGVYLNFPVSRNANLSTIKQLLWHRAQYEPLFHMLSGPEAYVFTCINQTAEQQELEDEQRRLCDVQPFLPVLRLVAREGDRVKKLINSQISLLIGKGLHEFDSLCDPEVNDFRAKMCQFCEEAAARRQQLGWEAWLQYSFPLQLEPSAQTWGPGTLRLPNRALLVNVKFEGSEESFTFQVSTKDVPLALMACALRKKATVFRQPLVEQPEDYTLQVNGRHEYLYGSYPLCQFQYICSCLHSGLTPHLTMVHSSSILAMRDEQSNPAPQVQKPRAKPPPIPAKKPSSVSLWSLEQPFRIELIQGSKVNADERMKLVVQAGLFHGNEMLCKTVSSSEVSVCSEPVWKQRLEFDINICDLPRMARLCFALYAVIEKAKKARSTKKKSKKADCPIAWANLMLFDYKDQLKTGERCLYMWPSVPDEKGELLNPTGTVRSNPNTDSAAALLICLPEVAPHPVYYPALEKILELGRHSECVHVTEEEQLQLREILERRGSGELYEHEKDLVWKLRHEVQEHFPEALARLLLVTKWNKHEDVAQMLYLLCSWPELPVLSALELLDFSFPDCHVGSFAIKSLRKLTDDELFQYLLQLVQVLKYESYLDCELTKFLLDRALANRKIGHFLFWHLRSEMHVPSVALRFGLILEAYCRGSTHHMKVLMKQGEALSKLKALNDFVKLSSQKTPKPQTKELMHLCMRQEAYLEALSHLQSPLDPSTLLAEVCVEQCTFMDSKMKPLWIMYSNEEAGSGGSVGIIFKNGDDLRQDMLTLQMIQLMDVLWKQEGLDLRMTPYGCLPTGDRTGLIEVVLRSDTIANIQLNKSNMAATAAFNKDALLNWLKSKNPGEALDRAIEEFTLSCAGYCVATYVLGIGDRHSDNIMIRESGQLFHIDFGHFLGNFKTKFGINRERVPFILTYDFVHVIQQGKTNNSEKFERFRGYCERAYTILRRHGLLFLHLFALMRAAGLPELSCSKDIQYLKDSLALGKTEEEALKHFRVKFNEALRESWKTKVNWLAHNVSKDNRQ

Q: With `Nc1nc2cc(-c3nn(C4CC(O)C4)c4ncnc(N)c34)ccc2o1` (stereo unspecified) as the compound, how does the IC50 read?
A: < 1 µM
